{"source": "patent US20260108479A1", "about": "(Belhaven BioPharma Inc., priority 2024, published 2026)", "test": "Study 101: plasma epinephrine pharmacokinetics", "type": "in vivo, human", "set-up": "unit not given beside the values", "conditions": "0.5 mg IM", "procedure": "Each patient was provided each treatment of the trial with 72-hour washout periods between each treatment, beginning with a 3.5 mg intranasal dose, followed by a 0.3 mg intramuscular dose, followed by a 0.5 mg intramuscular dose, and concluding with a 5.5 mg intranasal dose, with a safety follow-up performed 3 to 5 days after the final dose was administered. The primary endpoints of the study were pharmacokinetic measurements and assessments of comparative bioavailability, while the secondary endpoints were safety concerns and pharmacodynamic assessments.", "data": [{"smiles": "CNC[C@H](O)c1ccc(O)c(O)c1", "note": "[Epinephrine, epinephrine]", "values": [{"measurement": "Cmax (GeoMean)", "result": 382.3}]}]}
